{"sequences": {"note": "Chains of the proteins cited; added tags and fusions are not shown.", "UniProt Q16539, whole entry": "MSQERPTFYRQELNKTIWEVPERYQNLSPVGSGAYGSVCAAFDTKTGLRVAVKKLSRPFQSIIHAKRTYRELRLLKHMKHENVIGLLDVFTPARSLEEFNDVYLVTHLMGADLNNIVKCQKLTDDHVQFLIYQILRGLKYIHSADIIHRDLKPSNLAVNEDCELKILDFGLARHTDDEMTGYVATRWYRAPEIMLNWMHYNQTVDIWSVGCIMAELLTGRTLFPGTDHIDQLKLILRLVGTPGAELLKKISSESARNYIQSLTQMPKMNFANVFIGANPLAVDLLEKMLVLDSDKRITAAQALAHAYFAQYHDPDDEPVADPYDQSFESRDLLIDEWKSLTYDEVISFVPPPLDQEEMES"}, "source": "patent US20020198219A1", "about": "“2-pyridinamine compositions and related methods” (priority 2000, published 2002)", "origin": "cited, not measured here", "target": "p38 kinase (Homo sapiens, UniProt Q16539)", "conditions": "from the literature; cited from earlier work"}
{"smiles": "CCc1[nH]c(-c2ccc(OC)cc2)nc1-c1ccncc1", "note": "[SB202474]", "values": [{"measurement": "Activity, p38 kinase", "result": "Inactive"}]}
